miR-21 reporter = raises the signal of a miR-21 reporter; AID 2288; 340,000 tested, under 10 active; Potency, µM (doses to about 38.3 µM); HeLa miR-21 FLuc reporter, luciferase, 48 h; active = well fitted rising curve with a large enough effect; inconclusive = small, poorly fitted or top-dose-only effect; inactive = no such curve, though single readings can be large or run the other way;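 note: miR-21 action dims this reporter so a rising signal means less miR-21 action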
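HeLa miR-21-FLuc reporter line, endogenous miR-21; 2000 cells/well in DMEM/10% FBS; compound titration up to ~40uM final, 48 h, 37 degree Celsius; luciferase detection reagent, 15 min lysis, CCD luminescence.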
GLP-1R agonist = GLP-1 receptor (human) agonism | HEK293 GLP-1R CRE-luciferase, luminescence, 4-6 h; cells express a hypersensitive GLP-1R form | Potency, µM (series often up to 45.6 µM), actives largely listed as activators | 0.007% of 380,000 active
Pin1 inhibitor = inhibitors of human Pin1 | Q13526 | Pin1 FP peptide displacement, HiFluor488, 10 min | Potency, µM (doses to about 115 µM), usual class: inhibitors | 0.009% of 390,000 active | AID 504891; active = well fitted inhibition curve with a large enough effect in the polarisation, with a control signal flat, not every such curve was filed as active; inconclusive = small, poorly fitted or top-dose-only effect, or effect the other way, or a change in a side signal; inactive = no such curve, though single readings can be large or run the other way; the % refers to the polarisation
GLP1R inv ag = inverse agonists of human GLP-1 receptor; P43220; HEK293 GLP-1R CRE-luciferase, luminescence, 24 h; GLP-1R form is constitutively active; Potency, µM (highest dose often 38.3 µM), most hits filed as inhibitors; 1.6% of 410,000 active; also: nearly all actives have a fitted effect of over 55% in size
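Luminescence readout: a drop in cAMP-driven luciferase signal flags inverse agonism at a constitutively active GLP-1R stably expressed in HEK293. Compound exposure lasted 24 hr at 37 deg C, 5% CO2.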
GLP1R cytotox = cytotoxic in the GLP-1 receptor inverse agonist counter-screen. HEK293 cAMP-luciferase reporter cells, luminescence, 24 h. 0.13% of 410,000 active. AID 624418. Potency, µM (titrated, usually from 38.3 µM), actives largely listed as inhibitors;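 also: loss of luciferase light is scored as toxicity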
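MLSMR compounds, 24 hr on cells at 37 deg C/5% CO2; luminescence after luciferase reagent (12 min RT). Inhibition counted as the undesired cytotoxic outcome.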
PTHR1 ag = activates the human parathyroid hormone receptor PTHR1; Q03431; AID 743266; Potency, µM (series often up to 115 µM), hits mostly activators; HEK293 GP2 PTHR1 cells, GloSensor cAMP luminescence, 1 h; 0.075% of 410,000 active; also: nearly all actives have a fitted effect of over 55% in size
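HEK-293-derived GP2 cells expressing PTHR1 and a GloSensor cAMP reporter, 3,000/well, plated overnight, given luciferin plus IBMX (each 0.5 mM as added) for 1 h at 37 °C, then compound for 1 h at 37 °C. Luminescence was read after 15 min at room temperature.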
A number is an active result; n = inactive; u = inconclusive; x = not tested or not shown; [ ] = remark or other dose. Hits are enriched below; roughly 1.7% of the tested compounds scored in any of these assays. Unless noted, calls follow the shape of the dose curve; as a rule, active = well fitted curve in the direction sought with a large enough effect; inconclusive = small, poorly fitted or top-dose-only effect, or another doubt; inactive = no such curve, though single readings can be large; an effect the other way counts as inactive or inconclusive.

SMILES	miR-21 reporter	GLP-1R agonist	Pin1 inhibitor	GLP1R inv ag	GLP1R cytotox	PTHR1 ag
c1ccc(Cn2nnnc2C(c2ccccc2)N2CCN(c3nc4ccccc4s3)CC2)cc1 (stereo not given)	n	n	n	n	n	n
c1ccc(C(c2nnnn2Cc2ccco2)N2CCN(c3nc4ccccc4s3)CC2)cc1 (stereo not given)	n	n	n	7.9µM	n	n
Fc1ccc(C(c2nnnn2Cc2cccs2)N2CCN(c3ccccc3)CC2)cc1 (stereo not given)	n	n	n	7.9µM	n	n
CCCCC(c1nnnn1Cc1ccco1)N1CCN(c2nc3ccccc3s2)CC1 (stereo not given)	n	n	n	7.1µM	n	n
CC(C)c1ccc(Nc2ncnc3c2c(-c2ccccc2)cn3-c2ccccc2)cc1	n	x	n	n	n	n
COc1ccc(-c2nnc(SCC(=O)Nc3cc(OC)ccc3OC)nc2-c2ccc(OC)cc2)cc1	n	x	n	u	n	n
COc1cccc(NC(=O)Nc2nc(SC)ns2)c1	n	n	n	u	n	n
COc1cccc(NC(=O)Nc2nc(SC(C)(C)C)ns2)c1	n	n	n	5.6µM	u	n
COc1cc(/C=C/C(=O)c2ccc(C)c([N+](=O)[O-])c2)cc(OC)c1O	u	n	n	10µM	n	n
CC(=O)Nc1sc2c(c1-c1nc3ccccc3s1)CCS(=O)(=O)C2	x	x	n	x	x	x
O=C(c1ccc(S(=O)(=O)Nc2cccc(C(F)(F)F)c2)cc1)N1CCN(c2ccccc2O)CC1	x	n	n	10µM	n	n
Cc1cc(/C=C2\SC(=S)N(C)C2=O)c(C)n1-c1ccccc1O	x	n	u	u	n	n
Cc1cc(/C=C2\SC(=S)N(C)C2=O)c(C)n1-c1ccc(O)cc1	u	n	u	1.4µM	n	n
O=C(Nc1cccc(F)c1)N(Cc1ccc(Cl)cc1)CC(O)C(F)(F)F (stereo not given)	u	n	n	5.6µM	u	n
COc1ccccc1NC(=O)c1cc2cc(Br)ccc2cc1O	u	n	n	6.3µM	n	n
CCOC(=O)c1cc2c(ccn2C)n1CC(=O)N(Cc1ccccc1)c1ccccc1	n	n	n	13µM	n	n
N#CC1=C(N)NC(SCc2ccc(Br)cc2)=C(C#N)C12CCCCC2	n	n	n	10µM	n	n
COc1ccc(CNC(=O)c2ccc(N3CCCC3)c(NC(=O)NCc3ccc(F)cc3)c2)cc1	n	x	n	n	n	n
CC1(C)Cc2c(sc(NC(=O)COc3ccc(Cl)cc3)c2C#N)C(C)(C)N1	n	n	n	5.6µM	n	n
CC(C)(C)Cc1nc2ccccc2n1CCc1ccccc1	n	n	u	5µM	n	n
CCc1nc2ccccc2n1CCc1ccccc1	n	n	n	u	n	n
CC(C)Cc1nc2ccccc2n1CCc1ccccc1	n	n	n	13µM	u	n
O=S(=O)(Nc1cccc2ccccc12)c1ccc2ccccc2c1	x	x	n	x	x	x
CC(=O)n1cc(N(C(=O)CCl)c2ccccc2)c2ccccc21	u	n	n	3.5µM	u	n
CC(=O)c1ccc(NC(=S)N(CCCN(C)C)Cc2ccccc2)cc1	n	n	n	u	n	n
SMILES	miR-21 reporter	GLP-1R agonist	Pin1 inhibitor	GLP1R inv ag	GLP1R cytotox	PTHR1 ag
CN(C)CCCN(Cc1ccccc1)C(=S)Nc1ccc(SC(F)F)cc1	n	n	n	11µM	n	n
O=C(NNc1cc(Cl)cc(Cl)c1)C1CCC1	n	n	n	5.6µM	n	n
O=C(NNc1ccc(Cl)cc1)C1CCC1	n	n	n	u	n	n
O=C(N1CCc2cc([S+](=O)([O-])N3CCN([S+](=O)([O-])c4c(F)cccc4F)CC3)ccc2C1)C(F)(F)F	x	x	n	x	x	x
CCC(=O)Nc1cccc(-c2csc(-c3ccccc3)n2)c1	n	n	n	n	n	n
CC(C)CC(=O)Nc1cccc(-c2csc(-c3ccccc3)n2)c1	n	n	n	10µM	n	n
CCc1ccc(-c2nc(CS(=O)CC(=O)NCCN3CCCCCC3)c(C)o2)cc1 (stereo not given)	n	n	n	11µM	n	n
COc1ccc(OC)c(NC(=O)Cn2c(=O)c3cccn3c3ccccc32)c1	n	x	n	n	n	n
COc1ccccc1N=Nc1ccc(O)c2ncccc12	n	n	u	u	1.3µM	n
CC(C)CNC(=O)COC(=O)c1c2c(nc3ccccc13)/C(=C/c1cccs1)CC2	n	n	u	u	n[1.53 µM]	n
CCCCNC(=O)COC(=O)c1c2c(nc3ccccc13)/C(=C\c1cccs1)CC2	x	n	u	6.3µM	n	n
C[N+]1(C)CCN(C[C@@](O)(c2ccccc2)C2CCCCC2)CC1	x	n	x	x	x	x
CC(C)(C)n1nnnc1C(c1cccs1)N1CCCc2ccccc21 (stereo not given)	n	n	n	11µM	n	n
CC(C)(C)OC(=O)n1c2ccsc2c2cnn(Cc3ccccc3F)c(=O)c21	x	x	n	x	x	x
Cc1noc(C)c1-c1ccc2ncnc(NCc3cccc(-c4ccccc4)c3)c2c1	x	x	n	x	x	x
Cc1ccc(NS(=O)(=O)c2ccc3[nH]c(=O)[nH]c3c2)cc1C	x	x	n	x	x	x
CCc1ccc(C(C)NC(=O)C2(C)CC2(Br)Br)cc1 (stereo not given)	n	n	n	10µM	n	n
C[N+](C)(C)CCOP(=O)(O)OP(=O)([O-])OCC1OC(n2ccc(N)nc2=O)[C@H](O)[C@@H]1O (stereo not given in full)	x	n	x	x	x	x
NC(=O)c1c(NC(=O)c2noc3c2CCCC3)sc2c1CCCC2	n	x	n	n	n	n
O=C(O)c1ccccc1N/N=C\c1ccnc2ccccc12	n	n	n	4.5µM	n	n
ON=Cc1ccnc2ccccc12	x	n	x	n	n	n
C#CC(=O)N(c1cc(OC)ccc1OC)C(C(=O)NC1CCCC1)c1cccs1 (stereo not given)	n	n	n	7.9µM	5µM	n
NC(=O)c1cccc(-c2ccnc3c2CC(C(=O)NCc2ccccc2)O3)c1 (stereo not given)	x	n	x	5µM	n	n
COc1ccc(CN(Cc2ccccc2)C(=O)c2ccccc2O)cc1COc1ccc(NC(C)=O)cc1	x	x	n	x	x	x
Cn1c(=N)n(CC(=O)c2ccccc2)c2ccccc21	n	n	n	11µM	n	n
Cn1c(=N)n(CC(=O)c2ccc(Cl)c(Cl)c2)c2ccccc21	n	n	n	7.1µM	n	n
CSc1nn(Cc2ccc(F)cc2)c(N)c1S(=O)(=O)c1ccc(Cl)cc1	n	x	u	u	n	n

Screening data as filed in PubChem BioAssay.
